The values that follow come from patent publication US7473709B2, “11β-benzaldoxime derivatives of D-homooestra-4,9-dien-3-ones” (Bayer Schering Pharma AG, priority 2005, dated 2009).

Assay [1] deals with T1, Progesterone receptor (PR) (Oryctolagus cuniculus, UniProt P06186).
T1 construct: receptors in the cytosol from animal target organs; from tissue; host or cells: uterus cytosol of oestradiol-primed rabbit
T1 sequence (P06186 1-930): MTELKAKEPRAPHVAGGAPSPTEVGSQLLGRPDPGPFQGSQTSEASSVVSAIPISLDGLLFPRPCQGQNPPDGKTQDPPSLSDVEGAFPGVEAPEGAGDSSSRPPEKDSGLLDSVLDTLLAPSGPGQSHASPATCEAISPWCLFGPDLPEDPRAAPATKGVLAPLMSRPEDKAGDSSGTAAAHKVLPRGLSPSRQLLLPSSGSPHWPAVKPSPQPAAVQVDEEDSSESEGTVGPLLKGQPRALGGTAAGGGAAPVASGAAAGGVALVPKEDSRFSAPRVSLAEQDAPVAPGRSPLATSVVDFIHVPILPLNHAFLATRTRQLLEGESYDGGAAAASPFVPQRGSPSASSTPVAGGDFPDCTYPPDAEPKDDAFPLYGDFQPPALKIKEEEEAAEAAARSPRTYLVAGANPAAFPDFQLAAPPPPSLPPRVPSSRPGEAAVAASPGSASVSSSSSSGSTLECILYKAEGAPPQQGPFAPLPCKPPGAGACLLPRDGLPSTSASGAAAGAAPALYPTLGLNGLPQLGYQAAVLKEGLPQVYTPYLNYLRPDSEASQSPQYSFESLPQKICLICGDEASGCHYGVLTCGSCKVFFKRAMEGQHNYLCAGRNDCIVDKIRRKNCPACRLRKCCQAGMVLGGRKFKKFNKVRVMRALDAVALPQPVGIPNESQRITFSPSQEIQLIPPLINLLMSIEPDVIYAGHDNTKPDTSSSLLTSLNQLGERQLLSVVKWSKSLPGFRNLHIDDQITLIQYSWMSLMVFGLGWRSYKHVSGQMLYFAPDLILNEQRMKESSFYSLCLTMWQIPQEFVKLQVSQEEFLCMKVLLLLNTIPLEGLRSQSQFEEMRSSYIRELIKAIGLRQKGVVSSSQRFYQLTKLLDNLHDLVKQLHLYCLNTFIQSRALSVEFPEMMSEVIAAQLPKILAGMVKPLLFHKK
Description: Receptor binding affinity, progesterone receptor (competitive binding with 3H-ORG 2058). Particulars: uterus cytosol of oestradiol-primed rabbit; tracer 3H-ORG 2058 5 nM; reference progesterone = 100%. The protocol: (§1) The receptor binding affinity was determined by the competitive binding of a specifically binding ^3H-labelled hormone (tracer) and the test compound to receptors in the cytosol from animal target organs, with the aim of achieving receptor saturation and reaction equilibrium.
(§2) The tracer and increasing concentrations of the test compound (competitor) were coincubated with the receptor-containing cytosol fraction at 0-4° C. for 18 h. After separation of the unbound tracer with a carbon/dextran suspension, the proportion of receptor-bound tracer was measured for each concentration and the IC50 was determined from the concentration series.
(§3) The following incubation conditions were chosen for the individual receptor types:
Uterus cytosol of the oestradiol-primed rabbit, homogenized in TED buffer (20 mM Tris/HCI, pH 7.4; 1 mM ethylenediaminetetraacetate, 2 mM dithiothreitol) containing 250 mM sucrose; kept at −30° C.

The target in assay [2] is T2, Glucocorticoid receptor (GR) (Rattus norvegicus, UniProt P06536).
T2 construct: receptors in the cytosol from animal target organs; from tissue; host or cells: thymus cytosol of adrenalectomized rat
T2 sequence (P06536 1-795): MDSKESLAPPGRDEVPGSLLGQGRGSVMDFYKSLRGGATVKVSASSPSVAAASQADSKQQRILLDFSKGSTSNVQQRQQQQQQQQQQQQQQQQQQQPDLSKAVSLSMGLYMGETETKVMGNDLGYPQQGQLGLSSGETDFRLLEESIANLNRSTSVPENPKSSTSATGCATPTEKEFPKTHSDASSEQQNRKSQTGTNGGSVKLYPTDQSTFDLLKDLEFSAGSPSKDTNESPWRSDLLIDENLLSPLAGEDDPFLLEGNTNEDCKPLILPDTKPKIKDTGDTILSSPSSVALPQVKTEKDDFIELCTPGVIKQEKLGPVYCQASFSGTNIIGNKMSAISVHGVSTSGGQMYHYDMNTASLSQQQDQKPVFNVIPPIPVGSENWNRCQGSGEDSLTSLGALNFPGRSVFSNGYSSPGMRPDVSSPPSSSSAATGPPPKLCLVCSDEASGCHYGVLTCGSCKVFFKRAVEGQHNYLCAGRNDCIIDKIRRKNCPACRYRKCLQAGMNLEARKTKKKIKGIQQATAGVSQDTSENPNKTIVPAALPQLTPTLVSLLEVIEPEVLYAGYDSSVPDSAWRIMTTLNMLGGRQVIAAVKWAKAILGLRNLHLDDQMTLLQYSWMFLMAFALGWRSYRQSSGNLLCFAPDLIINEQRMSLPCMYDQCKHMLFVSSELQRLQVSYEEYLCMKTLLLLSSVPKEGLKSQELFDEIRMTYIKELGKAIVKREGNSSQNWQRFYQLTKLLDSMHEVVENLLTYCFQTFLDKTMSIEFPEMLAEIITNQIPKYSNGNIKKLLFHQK
Description: Receptor binding affinity, glucocorticoid receptor (competitive binding with 3H-dexamethasone). As for the experimental part: as §1, §2, §3
Thymus cytosol of the adrenalectomized rat, thymi stored at −30° C.; buffer: TED. Tracer: ^3H-dexamethasone, 20 nM; reference substance: dexamethasone.

With “4-[17aβ-Methoxy-17aα-(methoxymethyl)-17a-homo-3-oxooestra-4,9-dien-11β-yl]benzaldehyde (1E)-[O-(ethylthio)carbonyl]oxime [Example 7]”, in assay [1], the “Progesterone receptor (PR) progesterone = 100% (relative molar binding affinity, RBA)” value is given as 65%. Also, the “Ratio GR/PR” value in assay [2] (ratio of RBA at GR to RBA at PR) is reported as 1.7. For the same substance, in assay [2] (thymus cytosol of adrenalectomized rat, tracer 3H-dexamethasone 20 nM, reference dexamethasone = 100%), the “Glucocorticoid receptor (GR) dexamethasone = 100% (relative molar binding affinity, RBA)” value turned out to be 112%.
